Test results reported in article PMC4991607 (Assay and Drug Development Technologies, 2016).

The chains behind the UniProt entries cited, without tags or fusion partners. Residues count along the entry.
UniProt P17787, 26-502: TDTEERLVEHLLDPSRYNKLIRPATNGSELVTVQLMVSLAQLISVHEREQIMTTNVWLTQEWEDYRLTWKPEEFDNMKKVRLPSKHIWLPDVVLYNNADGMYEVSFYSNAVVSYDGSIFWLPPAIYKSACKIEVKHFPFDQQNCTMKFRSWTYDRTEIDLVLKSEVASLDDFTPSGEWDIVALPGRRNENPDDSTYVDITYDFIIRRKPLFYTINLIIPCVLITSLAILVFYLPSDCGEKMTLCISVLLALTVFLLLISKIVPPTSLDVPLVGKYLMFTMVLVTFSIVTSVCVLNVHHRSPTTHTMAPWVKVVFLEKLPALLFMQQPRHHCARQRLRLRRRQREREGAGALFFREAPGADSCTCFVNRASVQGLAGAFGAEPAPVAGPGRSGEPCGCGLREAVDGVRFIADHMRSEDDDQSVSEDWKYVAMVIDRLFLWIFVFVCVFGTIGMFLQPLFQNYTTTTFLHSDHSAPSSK
UniProt P43681, 27-627: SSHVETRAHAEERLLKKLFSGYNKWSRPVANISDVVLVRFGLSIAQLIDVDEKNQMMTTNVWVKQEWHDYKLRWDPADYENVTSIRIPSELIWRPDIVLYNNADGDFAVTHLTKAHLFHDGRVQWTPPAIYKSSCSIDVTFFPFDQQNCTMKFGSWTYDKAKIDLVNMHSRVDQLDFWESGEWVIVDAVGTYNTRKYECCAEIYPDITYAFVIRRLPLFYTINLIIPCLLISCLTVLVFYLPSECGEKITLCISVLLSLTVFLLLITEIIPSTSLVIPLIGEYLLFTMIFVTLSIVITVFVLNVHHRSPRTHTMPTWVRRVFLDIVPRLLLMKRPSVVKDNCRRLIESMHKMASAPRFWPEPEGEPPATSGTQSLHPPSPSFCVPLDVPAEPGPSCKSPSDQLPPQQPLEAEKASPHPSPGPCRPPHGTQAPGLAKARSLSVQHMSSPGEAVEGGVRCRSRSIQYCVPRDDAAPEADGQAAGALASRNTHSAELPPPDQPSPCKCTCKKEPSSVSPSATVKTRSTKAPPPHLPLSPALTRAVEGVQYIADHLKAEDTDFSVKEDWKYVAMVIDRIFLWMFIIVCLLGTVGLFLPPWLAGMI

Molecular target: human α4β2 nicotinic acetylcholine receptor (Homo sapiens, UniProt P17787+P43681)
Settings: two-site model

In the case of `CO[C@H]1CC=C2CCN3CCC4=C(CC(=O)OC4)[C@]23C1` [DHβE, dihydro-β-erythroidine], the “high-sensitivity component, share of channel population” value is reported as 82% and the “low-sensitivity component, share of channel population” value is reported as 18%.
